Molecular target: T1, CFTR (Homo sapiens, UniProt P13569, DEL508-508)
T1 construct: endogenous in cells; host or cells: primary human bronchial epithelial cells from CF subjects (F508del/MF-HBE), differentiated at air-liquid interface
Assay: HBE assay: Ussing chamber assay of CFTR-mediated short-circuit currents
Format: cell-based
Details: read-out: HBE Activity at 10 μM (%)
Experimental: 1. Ussing Chamber Assay of CFTR-Mediated Short-Circuit Currents
Ussing chamber experiments were performed using human bronchial epithelial (HBE) cells derived from CF subjects heterozygous for F508del and a minimal function CFTR mutation (F508del/MF-HBE) and cultured as previously described (Neuberger T, Burton B, Clark H, Van Goor F Methods Mol Biol 2011:741:39-54). After four days the apical media was removed, and the cells were grown at an air liquid interface for >14 days prior to use.
To isolate the CFTR-mediated short-circuit (ISC) current, F508del/MF-HBE grown on Costar® Snapwell™ cell culture inserts were mounted in an Ussing chamber and the transepithelial ISC was measured under voltage-clamp recording conditions (Vhold=0 mV) at 37° C. […] The CFTR-mediated ISC (μA/cm^2) for each condition was determined from the peak forskolin response to the steady-state current following inhibition. […]
The activity of the CFTR corrector compounds on the CFTR-mediated ISC was determined in Ussing chamber studies as described above. […]
To isolate the CFTR-mediated short-circuit (ISC) current, F508del/MF-HBE grown on Costar® Snapwell™ cell culture inserts were mounted in an Ussing chamber and the transepithelial ISC was measured under voltage-clamp recording conditions (Vhold=0 mV) at 37° C. […]

By UniProt entry, the sequences of proteins in these tests, tags left out. Chains listed by the source or under a name are the forms on record and can include a tag or linker.
UniProt P13569, with tags, fused parts or gaps DEL508-508: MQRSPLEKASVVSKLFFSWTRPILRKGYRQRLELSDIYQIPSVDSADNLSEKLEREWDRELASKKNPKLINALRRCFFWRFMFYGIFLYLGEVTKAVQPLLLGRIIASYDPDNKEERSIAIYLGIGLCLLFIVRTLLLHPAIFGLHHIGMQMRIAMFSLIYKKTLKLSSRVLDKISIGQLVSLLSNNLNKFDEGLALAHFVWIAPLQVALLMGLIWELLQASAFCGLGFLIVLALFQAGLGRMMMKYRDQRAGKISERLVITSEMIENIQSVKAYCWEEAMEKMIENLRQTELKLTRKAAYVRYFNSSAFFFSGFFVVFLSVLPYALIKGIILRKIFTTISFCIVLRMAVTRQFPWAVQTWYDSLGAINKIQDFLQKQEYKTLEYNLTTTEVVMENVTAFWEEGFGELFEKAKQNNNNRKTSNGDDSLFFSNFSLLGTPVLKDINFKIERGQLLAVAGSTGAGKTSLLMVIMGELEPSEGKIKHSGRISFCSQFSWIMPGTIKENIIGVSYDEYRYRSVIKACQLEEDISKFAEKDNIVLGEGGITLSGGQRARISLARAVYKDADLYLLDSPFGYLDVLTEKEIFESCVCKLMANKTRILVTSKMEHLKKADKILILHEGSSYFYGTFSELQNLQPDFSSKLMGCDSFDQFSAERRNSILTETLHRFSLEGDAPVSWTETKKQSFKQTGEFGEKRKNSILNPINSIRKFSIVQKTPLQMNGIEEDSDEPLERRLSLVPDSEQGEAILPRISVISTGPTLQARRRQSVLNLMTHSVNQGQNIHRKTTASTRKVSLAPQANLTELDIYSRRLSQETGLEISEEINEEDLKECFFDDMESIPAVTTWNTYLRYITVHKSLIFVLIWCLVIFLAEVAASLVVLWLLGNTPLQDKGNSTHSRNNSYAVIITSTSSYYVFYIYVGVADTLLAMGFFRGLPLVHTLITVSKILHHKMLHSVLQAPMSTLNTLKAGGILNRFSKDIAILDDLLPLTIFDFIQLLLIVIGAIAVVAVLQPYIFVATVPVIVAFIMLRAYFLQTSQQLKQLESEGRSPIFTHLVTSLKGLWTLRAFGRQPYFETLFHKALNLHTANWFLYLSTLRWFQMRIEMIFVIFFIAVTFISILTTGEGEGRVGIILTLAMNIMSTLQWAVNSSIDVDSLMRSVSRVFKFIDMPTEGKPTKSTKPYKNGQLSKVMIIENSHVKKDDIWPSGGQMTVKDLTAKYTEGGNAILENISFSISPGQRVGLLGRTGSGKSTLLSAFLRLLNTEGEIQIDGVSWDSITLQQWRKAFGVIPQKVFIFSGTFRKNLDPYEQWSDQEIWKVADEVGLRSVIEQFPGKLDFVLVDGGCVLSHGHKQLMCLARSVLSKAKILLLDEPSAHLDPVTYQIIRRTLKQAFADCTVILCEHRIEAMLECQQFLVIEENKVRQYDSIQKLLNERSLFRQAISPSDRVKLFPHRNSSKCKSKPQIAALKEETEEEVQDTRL

In the case of `COC[C@H](C(C)C)N(C)c1cncc(CN2C(=O)c3cccc(c3)S(=O)(=O)Nc3nc(cc(-c4c(C)cccc4C)n3)OC[C@H]2CC(C)(C)C)n1` [Compound 1530], the activation at 10 µM is reported as over 60%.

`Cc1cccc(C)c1-c1cc2nc(n1)NS(=O)(=O)c1cccc(c1)C(=O)N(Cc1cncc(N3CC[C@@H]3C(C)C)n1)[C@H](CC(C)(C)C)CO2` [Compound 1544] was tested, and the activation at 10 µM was over 60%.

Reference: patent US20240150377A1, “MODULATORS OF CYSTIC FIBROSIS TRANSMEMBRANE CONDUCTANCE REGULATOR” (VERTEX PHARMACEUTICALS INCORPORATED, priority 2020, published 2024)
